Experimental data as given in ChEMBL document CHEMBL1649075, “Synthesis and biological evaluation of (6- and 7-phenyl) coumarin derivatives as selective nonsteroidal inhibitors of 17β-hydroxysteroid dehydrogenase type 1” (J Med Chem, 2011).

Columns and labels:
17β-HSD1 (Homo sapiens) [1] = assay: Displacement of [3H]estrone human recombinant 17beta-HSD1 expressed in Escherichia coli BL21 (DE3)-RIL at 6 uM by scintillation counting in presence of NADPH
17β-HSD1 (Homo sapiens) [2] = assay: Displacement of [3H]estrone human recombinant 17beta-HSD1 expressed in Escherichia coli BL21 (DE3)-RIL at 0.6 uM by scintillation counting in presence of NADPH
17β-HSD2 (Homo sapiens) [3] = assay: Displacement of [3H]estradiol human recombinant 17beta-HSD2 expressed in Escherichia coli BL21 (DE3)-RIL at 6 uM by scintillation counting in presence of NAD+
17β-HSD2 (Homo sapiens) [4] = assay: Displacement of [3H]estradiol human recombinant 17beta-HSD2 expressed in Escherichia coli BL21 (DE3)-RIL at 0.6 uM by scintillation counting in presence of NAD+

SMILES	inhibition (17β-HSD1 (Homo sapiens) [1]) [%]	inhibition (17β-HSD1 (Homo sapiens) [2]) [%]	inhibition (17β-HSD2 (Homo sapiens) [3])	inhibition (17β-HSD2 (Homo sapiens) [4])
CC(=O)c1cc2cc(Br)ccc2oc1=O	19	8		
CC(=O)c1cc2ccc(O)cc2oc1=O	57	26	inactive	inactive

Activity calls are given as the source filed them. The calls are words filed in the database; no cut-off is given here.
